The entries are a selection whose mix differs from that of the whole data set. Records with an inconclusive call do not appear. Entries that show only a call come without a potency. Active and inactive are the calls of the source. The call rests on the fitted dose curve; in most records, active means well fitted inhibition curve with a large enough effect; inconclusive means small, poorly fitted or top-dose-only effect, or effect the other way; inactive means flat fitted curve, though single readings scatter.
Molecular target: Fructose-bisphosphate aldolase (Giardia intestinalis (strain ATCC 50803 / WB clone C6)) (UniProt A8B2U2)
Test: qHTS Assay for Inhibitors of Fructose-1,6-bisphosphate Aldolase from Giardia Lamblia; further: nearly all actives have a fitted effect of over 55% in size
Conditions: purified Giardia FBPA; series mostly up to 59.6 µM
Potency means the concentration at half of the fitted maximal effect.

By UniProt entry, the sequences of proteins in these tests, tags left out.
UniProt A8B2U2, whole entry: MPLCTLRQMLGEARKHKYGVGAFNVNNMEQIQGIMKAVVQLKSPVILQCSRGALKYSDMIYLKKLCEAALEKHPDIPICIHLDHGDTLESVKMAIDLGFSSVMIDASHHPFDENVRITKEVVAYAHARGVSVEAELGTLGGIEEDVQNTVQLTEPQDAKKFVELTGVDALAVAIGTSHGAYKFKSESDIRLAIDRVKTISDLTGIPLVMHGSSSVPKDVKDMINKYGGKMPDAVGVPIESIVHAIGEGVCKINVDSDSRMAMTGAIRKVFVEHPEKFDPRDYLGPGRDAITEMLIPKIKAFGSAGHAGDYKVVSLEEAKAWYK

Compound	Potency
CP(=O)(Nc1ccccc1F)Oc1ccccc1 (stereo unspecified)	inactive
CC(C)c1ccc(OP(C)(=O)Nc2ccc(SC(F)(F)F)cc2)cc1 (stereo unspecified)	inactive
O=C(OCCN1CCN(CCOCc2ccccc2)CC1)C(O)(c1ccccc1)c1ccccc1	inactive
CCOC(=O)c1ccc(NP(C)(=O)Oc2ccc(F)cc2)cc1 (stereo unspecified)	inactive
COc1ccc(OP(C)(=O)Nc2ccc(SC(F)(F)F)cc2)cc1 (stereo unspecified)	inactive
CCN(CC)CCCOC(=O)C(O)(c1ccccc1)C1CCCCC1 (stereo unspecified)	inactive
CP(=O)(Nc1ccccc1)Oc1ccc(F)cc1 (stereo unspecified)	inactive
CCCCCOc1ccc(NP(C)(=O)Oc2ccc(Cl)cc2Cl)cc1 (stereo unspecified)	inactive
COc1ccc(OP(C)(=O)Nc2cccc(Br)c2)cc1 (stereo unspecified)	inactive
CN(C)CCOC(=O)C(O)(c1ccccc1)C1CCCCC1 (stereo unspecified)	inactive
COc1ccc(NP(C)(=O)Oc2ccccc2OC)cc1 (stereo unspecified)	inactive
O=[N+]([O-])c1ccc(OP2(=O)COCCO2)cc1 (stereo unspecified)	inactive
Cc1cc(-c2cccc3ccccc23)c(C)cn1.O=[N+]([O-])c1cc([N+](=O)[O-])c(O)c([N+](=O)[O-])c1	inactive
CP(=O)(Nc1ccc(SC(F)(F)F)cc1)Oc1ccc(F)cc1 (stereo unspecified)	inactive
CCOP(C)(=S)SCC(=O)NC(C)(CC)C(=O)O (stereo unspecified)	inactive
CP(=O)(Nc1ccc2c(c1)OCCO2)Oc1ccccc1 (stereo unspecified)	inactive
Cc1ccccc1NP(C)(=O)Nc1ccccc1C	inactive
CCN(CCCl)Cc1ccccc1C	inactive
COc1ccc(OP(C)(=O)Nc2ccc(Br)cc2)cc1 (stereo unspecified)	inactive
CCN(CC)CC(O)COC(=O)C(O)(c1ccccc1)C1CCCCC1 (stereo unspecified)	inactive
OCCSCCO	inactive

Compound	Potency
O=C(OCCCN1CCCC1)C(O)(c1ccccc1)C1CCCCC1 (stereo unspecified)	inactive
COc1ccccc1OP(C)(=O)Nc1c(C)n(C)n(-c2ccccc2)c1=O (stereo unspecified)	inactive
CCc1ccc(OP(C)(=O)Nc2cccnc2)cc1 (stereo unspecified)	inactive
CP(=O)(Oc1ccccc1)N1CCOC1=O (stereo unspecified)	inactive
COc1ccccc1OP(C)(=O)Nc1ccccc1Br (stereo unspecified)	inactive
CC(C)(C)c1ccc(OP(C)(=O)O)cc1	inactive
CCOC(=O)c1ccc(NP(C)(=O)Oc2ccc(Cl)cc2)cc1 (stereo unspecified)	inactive
CP(=O)(OC12CC3CC(CC(C3)C1)C2)OC12CC3CC(CC(C3)C1)C2	inactive
C/C1=C2N=C(/C=C3N=C(/C(C)=C4\[N-][C@@](C)([C@H]5N=C1[C@@](C)(CCC(=O)NC[C@H](C)OP(=O)([O-])O[C@@H]1[C@H](O)[C@H](n6cnc7cc(C)c(C)cc76)O[C@@H]1CO)[C@@H]5CC(N)=O)[C@](C)(CC(N)=O)[C@H]4CCC(N)=O)[C@@](C)(CC(N)=O)[C@@H]\3CCC(N)=O)C(C)(C)[C@@H]/2CCC(N)=O.[C-]#N.[Co+3]	inactive
Cc1cc(C)cc(OP(C)(=O)Nc2cccc(C(F)(F)F)c2)c1 (stereo unspecified)	inactive
COc1ccccc1OP(C)(=O)Nc1ccc(C)c(C)c1 (stereo unspecified)	inactive
COc1ccc(OP(C)(=O)Nc2ccccc2Br)cc1 (stereo unspecified)	inactive
CP(=O)(Nc1ccc(Cl)cc1Cl)Oc1ccccc1 (stereo unspecified)	inactive
CP(=O)(OCCOc1ccccc1)OCCOc1ccccc1	inactive
COc1ccccc1OP(C)(=O)Nc1ccc(Br)cc1 (stereo unspecified)	inactive
COc1ccc(OP(C)(=O)Nc2ccccn2)cc1 (stereo unspecified)	inactive
CN(C)CCOC(=O)C(O)(c1ccccc1)C1CCCC1 (stereo unspecified)	inactive
Cc1c(NP(C)(=O)Oc2ccc(C(C)C)cc2)c(=O)n(-c2ccccc2)n1C (stereo unspecified)	inactive
O=[N+]([O-])c1cc([N+](=O)[O-])c(Nc2ccccn2)c([N+](=O)[O-])c1	active: 3.15 µM
COc1ccccc1OP(C)(=O)Nc1ccc(C)cc1C (stereo unspecified)	inactive
CP(=O)(Nc1ccccn1)Oc1ccccc1 (stereo unspecified)	inactive

Compound	Potency
CCc1ccc(OP(C)(=O)O)cc1	inactive
CCN(CC)CCCOC(=O)C(O)(c1ccccc1)c1ccccc1	inactive
O=C(O)C1(O)c2ccccc2-c2ccccc21	inactive
Cc1cccc(C)c1OP(C)(N)=O (stereo unspecified)	inactive
O=C(O)C(O)(c1ccccc1)c1ccccc1	inactive
CC(C)(C)c1ccc(OP(C)(=O)Nc2ccc(SC(F)(F)F)cc2)cc1 (stereo unspecified)	inactive
Cc1ccc(NP(C)(=O)Oc2ccccc2)c(C)c1 (stereo unspecified)	inactive
COc1ccccc1OP(C)(=O)Nc1ccc(C)cc1 (stereo unspecified)	inactive
CCOC(=O)c1ccc(NP(C)(=O)Oc2ccccc2)cc1 (stereo unspecified)	inactive
Cc1cc(C)cc(OP(C)(N)=O)c1 (stereo unspecified)	inactive
COc1ccc(OP(C)(=O)Nc2cccc(F)c2)cc1 (stereo unspecified)	inactive
COc1ccccc1OP(C)(=O)Nc1cc(Cl)ccc1C (stereo unspecified)	inactive
CP(=S)(Nn1cnnc1)Oc1ccccc1 (stereo unspecified)	inactive
CP(=O)(Nc1ccccc1Br)Oc1ccccc1 (stereo unspecified)	inactive
COc1ccccc1OP(C)(=O)Nc1ccccc1 (stereo unspecified)	inactive
CP(=O)(Oc1ccccc1)OC(c1ccccc1)C(F)(F)F (stereo unspecified)	inactive
Cc1cccc(C)c1OP(C)(=O)Nc1ccc(SC(F)(F)F)cc1 (stereo unspecified)	inactive
CP(=O)(Nc1ccc(SC(F)(F)F)cc1)Oc1ccc(Cl)cc1 (stereo unspecified)	inactive
Cc1cc(C)cc(OP(C)(=O)Nc2ccc(SC(F)(F)F)cc2)c1 (stereo unspecified)	inactive
CP(=O)(NC(=O)Nc1ccccc1)Oc1ccccc1 (stereo unspecified)	inactive
CCc1ccc(OP(C)(=O)N2CCN(c3ccc([N+](=O)[O-])cc3)CC2)cc1 (stereo unspecified)	inactive

Compound	Potency
CCOC(=O)c1ccc(NP(C)(=O)Oc2ccc(OC)cc2)cc1 (stereo unspecified)	inactive
CCOP(C)(=S)SCC(=O)NC(C)C(=O)O (stereo unspecified)	inactive
CP(=O)(Nc1ccccn1)Oc1ccc(Cl)cc1 (stereo unspecified)	inactive
O=[N+]([O-])c1cc([N+](=O)[O-])c(-n2nnc3ccccc32)c([N+](=O)[O-])c1	inactive
CC(C)N(CCCl)C(C)C	inactive
O=[N+]([O-])c1cc([N+](=O)[O-])c(Nc2nnnn2CCO)c([N+](=O)[O-])c1	inactive
COc1ccccc1OP(C)(=O)Nc1c(C)cccc1C (stereo unspecified)	inactive
CN1CCCCC1COC(=O)C1(O)c2ccccc2CCc2ccccc21 (stereo unspecified)	inactive
CCCOc1ccc(NP(C)(=O)Oc2ccc(Cl)cc2)cc1 (stereo unspecified)	inactive
CP(=O)(Nc1ccc(SC(F)(F)F)cc1)Oc1ccccc1 (stereo unspecified)	inactive
CC1=NCCc2c1[nH]c1ccccc21.O=[N+]([O-])c1cc([N+](=O)[O-])c(O)c([N+](=O)[O-])c1	inactive
O=[N+]([O-])OCC(CO[N+](=O)[O-])(CO[N+](=O)[O-])CO[N+](=O)[O-]	inactive
COc1ccccc1OP(C)(=O)Nc1cccc(Br)c1 (stereo unspecified)	inactive
CCOC(=O)c1ccc(NP(C)(=O)Oc2cc(C)cc(C)c2)cc1 (stereo unspecified)	inactive
Cc1cc(C)cc(OP(C)(=O)Nc2ccc(C)cc2C)c1 (stereo unspecified)	inactive
Cc1ccc(C)c(NP(C)(=O)Oc2ccccc2)c1 (stereo unspecified)	inactive
Cc1cc(C)cc(OP(C)(=O)Nc2ccccn2)c1 (stereo unspecified)	inactive
CP(=O)(Nc1cccc(Br)c1)Oc1ccccc1 (stereo unspecified)	inactive
